Target: T1, hADM (Homo sapiens, UniProt P35318)
T1 sequence (P35318 95-146 limits assumed): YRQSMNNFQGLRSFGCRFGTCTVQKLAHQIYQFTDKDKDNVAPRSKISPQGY
Test: Stability of human Adrenomedullin in human citrate plasma

half-life at 10 nM: 7.8 h
Compound: CC[C@H](C)[C@H](NC(=O)[C@H](CCC(N)=O)NC(=O)[C@H](Cc1c[nH]cn1)NC(=O)[C@H](C)NC(=O)[C@H](CC(C)C)NC(=O)[C@H](CCCCN)NC(=O)[C@H](CCC(N)=O)NC(=O)[C@@H](NC(=O)[C@@H](NC(=O)[C@@H]1CSSC[C@H](NC(=O)CNC(=O)[C@H](Cc2ccccc2)NC(=O)[C@H](CO)NC(=O)[C@H](CCCNC(=N)N)NC(=O)[C@H](CC(C)C)NC(=O)CNC(=O)[C@H](CCC(N)=O)NC(=O)[C@H](Cc2ccccc2)NC(=O)[C@H](CC(N)=O)NC(=O)[C@H](CC(N)=O)NC(=O)[C@H](CCSC)NC(=O)[C@H](CO)NC(=O)[C@H](CCC(N)=O)NC(=O)[C@H](CCCNC(=N)N)NC(=O)[C@@H](N)Cc2ccc(O)cc2)C(=O)N[C@@H](CCCNC(=N)N)C(=O)N[C@@H](Cc2ccccc2)C(=O)NCC(=O)N[C@@H]([C@@H](C)O)C(=O)N1)[C@@H](C)O)C(C)C)C(=O)N[C@@H](Cc1ccc(O)cc1)C(=O)N[C@@H](CCC(N)=O)C(=O)N[C@@H](Cc1ccccc1)C(=O)N[C@H](C(=O)N[C@@H](CC(=O)O)C(=O)N[C@@H](CCCCN)C(=O)N[C@@H](CC(=O)O)C(=O)N[C@@H](CCCCN)C(=O)N[C@@H](CC(=O)O)C(=O)N[C@@H](CC(N)=O)C(=O)N[C@H](C(=O)N[C@@H](C)C(=O)N1CCC[C@H]1C(=O)N[C@@H](CCCNC(=N)N)C(=O)N[C@@H](CO)C(=O)N[C@@H](CCCCN)C(=O)N[C@H](C(=O)N[C@@H](CO)C(=O)N1CCC[C@H]1C(=O)N[C@@H](CCC(N)=O)C(=O)NCC(=O)N[C@@H](Cc1ccc(O)cc1)C(N)=O)[C@@H](C)CC)C(C)C)[C@@H](C)O [hADM]
